Assay results taken from patent publication US20180312557A1, “Leg1 Protein, Leg1 Gene, and Uses and Drugs thereof” (ZHEJIANG UNIVERSITY, priority 2016, published 2018).

Molecular target: T1, EGFR (Homo sapiens, UniProt P00533)
T1 construct: endogenous in cells; host or cells: HepG2
Assay: Effect of EGFR inhibitor on mLeg1-induced Akt and EGFR phosphorylation in HepG2 cells
Assay type: cell-based
Conditions: HepG2, 1 μM inhibitor
Description: 20.1 Culture of the HepG2 cell: reference may be made to step 18.1 for details.
20.2 Additives (BSA, mLeg1, AG1478) were added to the cell culture solution separately, after culture for 15 minutes, the total protein was extracted (referring to step 13.2), and the level of the proteins (p-Akt, Akt, P-EGFR) in each treatment group was detected by Western blot (referring to step 2.2).

mLeg1-induced Akt phosphorylation: blocked
mLeg1-induced activation of EGFR (EGFR phosphorylation level): inhibited
SMILES: COc1cc2ncnc(Nc3cccc(Cl)c3)c2cc1OC [AG1478, reference compound]
